A selection: hits, their analogues and other compounds. The true share with any hit is near 2.1%.
miR122 inh – inhibitors of miR-122 in Huh7 cells; Huh7 miR-122 Renilla luciferase sensor, 48 h; neutral wells = 0, positive control = 100; activation (reporter increase), % at 12.5 µM; hit rate 0.3% among 340,000;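 active means mean replicate activation score at least 90 and every replicate individually at or above 90; inconclusive means only one of the two criteria met; inactive means neither criterion met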;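 further: higher luciferase means less miR-122 activity so hits act as miR-122 inhibitors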
MITF act – activators of MITF-driven TRPM1 promoter activity in SK-MEL-5 cells; SK-MEL-5 TRPM1-promoter luciferase, 24 h; % of positive control, neutral wells = 0; activation, % at 12.5 µM; hit rate 0.75% among 300,000; AID 588334;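 active means mean activation of at least 80% with every replicate also reaching 80%; inconclusive means mean reaches 80% but some replicate falls short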
TRPM1 prom inh – MITF TRPM1 promoter inhibition in SK-MEL-5 cells | SK-MEL-5 TRPM1 promoter luciferase, 24 h | inhibition, % at 12.5 µM | hit rate 0.83% among 330,000 | AID 488899;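 active means mean inhibition across replicates of 60% or more, whatever share of single replicates reaches that level; inconclusive means some that reach 60%, reason not given; inactive means mean inhibition across replicates below 60%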
Wnt act – activators of Wnt/beta-catenin signaling | Wnt/beta-catenin reporter cell assay, activator, plate reader | activation, % at 9.35 µM | hit rate 1.2% among 300,000 | AID 743398; in the data active means activation above about 30%, passing the limit was not always enough; inconclusive means no clear call, values can overlap the other calls
PGC1a acetyl inh – PGC1a acetylation modulation, inhibitor mode | inhibition, % at 15.6 µM | hit rate 0.17% among 350,000 | U2OS PGC1a acetylation, AlphaScreen anti-acetyl-lysine; with virally co-expressed GCN5 acetyltransferase;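 active means every replicate shows inhibition of at least 40%; inconclusive means mean inhibition at least 40% but some replicate below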
UUG fidelity – yeast start codon fidelity modulation | S. cerevisiae UUG-firefly luciferase reporter, luminescence/redox ratio | activity score, % at 18.7 µM | 0.13% of 350,000 active | AID 602363;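 active means replicate mean at a twofold rise or more, about +100% in these data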;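 further: firefly luciferase made from a UUG start codon reports start codon fidelity; reporter light over untreated wells divided by growth signal over untreated wells; some hits fall short of that in this replicate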
Hits are given with their value; - = inactive; ? = inconclusive; . = no result given.

SMILES	miR122 inh	MITF act	TRPM1 prom inh	Wnt act	PGC1a acetyl inh	UUG fidelity
C[C@H](CO)N1C[C@H](C)[C@H](CN(C)C(=O)NC2CCCCC2)Oc2c(NC(=O)c3cnccn3)cccc2C1=O	-	.	.	.	-	-
COc1ccc(Nc2cc(C)nc3nc(C)nn23)c(OC)c1	-	.	.	-	-	-
COc1ccc(OC)c(Nc2cc(C)nc3nc(C)nn23)c1	106.8	-	-	-	-	-
COc1ccccc1-c1cn(CC[C@@H]2CC[C@@H](NC(=O)C3CCCCC3)[C@H](CO)O2)nn1	.	.	.	.	-	-
Cc1cc(=O)oc2cc(NS(=O)(=O)c3ccc(F)cc3)ccc12	-	.	-	-	-	-
Cc1cc(=O)oc2cc(NS(=O)(=O)c3ccccc3)ccc12	-	.	-	52.5	-	-
Cc1ccc2c(C)c(C(=O)N(C)C(C)c3ccon3)oc2c1C (stereo unspecified)	-	108.9	-	?	-	-
Cc1ccc2c(C)c(C(=O)N(C)C(C)c3ccncn3)oc2c1C (stereo unspecified)	-	-	-	-	-	-
O=C(C[C@H]1C[C@H]2c3cc(NC(=O)C4CCOCC4)ccc3O[C@H]2[C@H](CO)O1)NCC1CC1	-	.	.	.	-	-
Cc1noc(C)c1S(=O)(=O)Nc1ccc2c(c1)C(=O)N([C@H](C)CO)C[C@@H](C)[C@@H](CN(C)Cc1ccc(Oc3ccccc3)cc1)O2	-	.	.	.	-	-
CCOC(=O)c1ccc(COC(=O)CNS(=O)(=O)c2ccccc2)cc1	.	-	-	-	-	.
O=S(=O)(NCc1ccccc1)c1ccc(Cl)c(S(=O)(=O)NCc2ccccc2)c1	105.8	.	-	.	-	-
COc1ccc(S(=O)(=O)NCc2ccccc2)cc1Br	192.3	.	-	-	-	-
CCOC(=O)c1ccc(S(=O)(=O)NCCNCc2ccccc2)cc1	-	-	-	39.1	-	.
COc1ccc(S(=O)(=O)NCc2ccccc2)cc1	112.8	-	-	.	.	-
CCOC(=O)c1c(C=O)c2sc(C)cc2n1C	-	-	-	43.9	-	-
CCOC(=O)c1c(C=O)c2ccccc2n1CC	-	-	-	-	.	.
Cc1ccc(S(=O)(=O)N[C@@H]2C=C[C@H](CC(=O)N3CCc4ccccc4C3)O[C@@H]2CO)cc1	.	.	.	.	-	-
Cc1cccc(C(=O)Nc2ccc3c(c2)ncn3C)c1	-	125.5	-	-	-	-
CC(C)(C)n1cnc2cc(NC(=O)c3ccc(Cl)cc3)ccc21	-	.	-	42.7	-	-
Cn1cnc2cc(NC(=O)c3ccc(Cl)cc3)ccc21	-	-	-	-	-	-
Cn1cnc2cc(NC(=O)c3cccs3)ccc21	.	93.2	-	-	-	.
Cc1cccc(C(=O)Nc2ccc3c(c2)nc(C)n3C)c1	.	-	-	-	-	-
Cc1c(C)n(CCCN(C)C)c2ncnc(NCc3ccccc3)c12	-	-	-	-	-	-
Cc1c(C)n(CCc2ccccc2)c2ncnc(NCCO)c12	-	137.7	-	-	-	-
SMILES	miR122 inh	MITF act	TRPM1 prom inh	Wnt act	PGC1a acetyl inh	UUG fidelity
COCCNC(=O)CSc1nc2ccccc2c(=O)n1CC1CCCO1 (stereo unspecified)	285.9	.	-	.	-	-
COC(=O)c1ccc2c(=O)n(CC3CCCO3)c(SCC(=O)Nc3ccccc3OC)nc2c1 (stereo unspecified)	189.5	.	-	-	-	-
C[C@H](CO)N1C[C@H](C)[C@@H](CN(C)C(=O)C2CCCCC2)Oc2ncc(C#Cc3cccc(F)c3)cc2C1=O	-	.	.	.	-	-
C=C1C(=O)OC2C1CCC(C)=C1C(=O)C3OC3(C)C12 (stereo unspecified)	-	-	105.2	-	-	-
C=C1C(=O)O[C@H]2[C@@H]1CC/C(CO)=C\CC[C@@]1(C)O[C@@H]21	.	.	.	.	-	.
CC1(C)Cc2c(sc3nc(-c4cc5ccccc5o4)n(N)c(=O)c23)CO1	-	129.4	-	.	.	-
CN=C(c1ccc(C)cc1)n1c(=S)nc(-c2ccc(C)cc2)n(C)c1=S	-	-	-	55.4	-	-
CCCCSc1ncc(C(=O)OCC)c(N)n1	-	112.3	-	.	-	-
CCOC(=O)c1cnc(SCCc2ccccc2)nc1N	-	94.6	-	36.5	-	-
COc1cccc2sc(N)nc12	-	-	-	-	-	-
COc1cccc2sc(N(C)c3ccccc3)nc12	-	-	-	65.3	-	-
C[C@H]1CN([C@@H](C)CO)C(=O)c2cc(NC(=O)CCC(F)(F)F)ccc2O[C@H]1CN(C)Cc1ccccc1	-	.	.	.	-	-
COCCNC(=O)c1ccc2c3n(nc2c1)-c1ccc(Cl)cc1CO3	-	86.9	-	-	.	-
O=C(NCCO)c1ccc2c3n(nc2c1)-c1ccc(Cl)cc1CO3	-	84.3	-	50.6	.	-
COCCNC(=O)c1ccc2c3n(nc2c1)-c1ccccc1CO3	-	-	-	-	-	-
Cc1ccc2c(c1)COc1c3ccc(C(=O)N[C@@H](C)CO)cc3nn1-2	-	-	-	-	.	-
C=CCNC(=O)c1ccc2c3n(nc2c1)-c1ccccc1CO3	-	-	-	-	-	-
Cc1ccc2c(c1)COc1c3ccc(C(=O)NCCO)cc3nn1-2	-	102.4	-	51.6	-	-
Cc1ccc2c(c1)COc1c3ccc(C(=O)NC(C)C)cc3nn1-2	-	89.4	-	46.3	.	-
CC(C)NC(=O)N(C)C[C@H]1Oc2ccc(NC(=O)NC3CCCCC3)cc2CC(=O)N([C@@H](C)CO)C[C@H]1C	-	.	.	.	-	-
C[C@@H]1CN([C@H](C)CO)C(=O)c2cc(NC(=O)Cn3cnnn3)ccc2O[C@@H]1CN(C)S(=O)(=O)c1cn(C)cn1	-	.	.	.	-	-
Cc1nnsc1C(=O)Nc1cc(Cl)ccc1Cl	-	.	-	42.0	.	-
O=C(Nc1cc(C(F)(F)F)cc(C(F)(F)F)c1)Nc1cnn(-c2ccc([N+](=O)[O-])cc2)c1C(F)(F)F	-	.	69.8	-	-	-
C[C@@H]1CN([C@H](C)CO)C(=O)c2cc(C#Cc3ccccn3)cnc2O[C@H]1CN(C)Cc1ccncc1	-	.	.	.	-	-
CCN(Cc1ccccc1)S(=O)(=O)c1ccc(C(=O)N(CCCN(C)C)c2nc3cc(C)cc(C)c3s2)cc1	-	-	90.0	-	-	-
SMILES	miR122 inh	MITF act	TRPM1 prom inh	Wnt act	PGC1a acetyl inh	UUG fidelity
CCCCN(CC)S(=O)(=O)c1ccc(C(=O)N(CCCN(C)C)c2nc3cc(C)cc(C)c3s2)cc1	.	-	79.3	-	-	.
C=CCOc1ccc(/C=C/C(C)=N\O)cc1	-	.	-	37.5	-	-
C=CCOc1ccc(/C=C/C(=O)OCC(=O)N2CCN(C(C)=O)CC2)cc1	-	-	-	-	-	.
COc1ccc(S(=O)(=O)N(C)C[C@H]2Oc3ccc(NC(=O)NC(C)C)cc3C(=O)N([C@@H](C)CO)C[C@H]2C)cc1	-	.	.	.	-	-
CCN(N=O)c1ccc(C=C2C=Cc3ccccc32)cc1	.	97.5	-	41.4	.	.
COc1ccccc1NC(=O)N(C)C[C@@H]1Oc2ncc(C#CCC(C)C)cc2C(=O)N([C@@H](C)CO)C[C@H]1C	-	.	.	.	-	-

Compound activity: PubChem BioAssay, Broad Institute
